# Apparent affinities of Ab-95 variants for a coronavirus HR2 peptide

All variants were tested on one target, the spike HR2 peptide PDVDLGDISGINAS (SARS-CoV-2).

Parent scFv Ab-95: VH joined to VL by a 15-residue (Gly4Ser)3 linker. Changes lie in the light chain CDRs alone.
VH: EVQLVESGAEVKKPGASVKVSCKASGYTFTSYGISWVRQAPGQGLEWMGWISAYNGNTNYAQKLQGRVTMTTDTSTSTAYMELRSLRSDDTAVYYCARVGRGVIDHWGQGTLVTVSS
VL: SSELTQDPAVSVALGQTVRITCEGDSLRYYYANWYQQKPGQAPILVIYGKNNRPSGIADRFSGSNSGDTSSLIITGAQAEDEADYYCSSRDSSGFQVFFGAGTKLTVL

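AAYL52 was designed without a model: most single CDR substitutions and a random sample of double and triple ones. The assay is AlphaSeq: two haploid yeast populations carry antibody and antigen on their surface. Mating (16 h, 30 °C) was followed by selection of diploids and sequencing of their barcodes. Read counts were normalised to the haploid input and turned into Kd by a linear fit to BCL2-family pairs of known affinity, for each replicate. Each pool was mated in three replicate cultures.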

Substitutions are numbered in sequence along the VL above, starting at 1 (not Kabat). Values are apparent Kd, the geometric mean of the replicates that gave a signal; lower means stronger binding. "no signal" means that the variant was in the library but no mating with the target was seen in any replicate; the authors take this as a sign of poor binding, and no number exists.

With Y29C Y31P S55R the result was 1.6 µM (2 of 3 replicates).
With Y29C G49E N51G the result was 6.8 µM (1 of 3 replicates).
With S26I S92C Q96P the result was no signal (0 of 3 replicates).
With E23C G49W S93K the result was 36 µM (2 of 3 replicates).
With G49M R53Y Q96A the result was 31 µM (3 of 3 replicates).
With Y30G K50R the result was 5.4 nM (3 of 3 replicates).
With E23I L27E R28T the result was 8.5 µM (2 of 3 replicates).
With D25T P54A the result was 110 nM (3 of 3 replicates).
With E23R R53S S89F the result was 68 nM (3 of 3 replicates).
With Y31G Q96L V97D the result was no signal (0 of 3 replicates).
With G49R S55T F98V the result was 3.6 µM (1 of 3 replicates).
With D25H N51S F98I the result was 660 nM (3 of 3 replicates).
With D91Y S93Q Q96W the result was 1.1 µM (1 of 3 replicates).
With G24Y Y29S A32E the result was no signal (0 of 3 replicates).
With Y31G S92P the result was 32 nM (3 of 3 replicates).
With N33T Q96F F98G the result was 5.6 µM (1 of 3 replicates).
With K50D R90Q the result was 110 nM (3 of 3 replicates).
With D25H S26H D91M the result was no signal (0 of 3 replicates).
With N52P G94K V97F the result was no signal (0 of 3 replicates).
With Y29M R53V R90C the result was 12 µM (3 of 3 replicates).
With A32H N33Y S92Y the result was 35 µM (2 of 3 replicates).
With D25Y S92G G94R the result was 640 nM (3 of 3 replicates).
With E23Y F95T V97A the result was 1.8 µM (3 of 3 replicates).
With G94K Q96E V97N the result was no signal (0 of 3 replicates).
With N33P R90Y Q96W the result was 82 µM (2 of 3 replicates).
With N33H S55F R90K the result was no signal (0 of 3 replicates).
With Y30W R90P D91L the result was 3.6 µM (2 of 3 replicates).
With E23F N51K R53A the result was 230 µM (1 of 3 replicates).
With E23C L27A V97P the result was no signal (0 of 3 replicates).
With P54K Q96M V97R the result was 2.1 µM (3 of 3 replicates).
With N33P G49R K50N the result was no signal (0 of 3 replicates).
With D25F V97G the result was 330 nM (3 of 3 replicates).
With E23V S26C S93M the result was 260 µM (1 of 3 replicates).
With Y29G F95M F98L the result was 100 nM (3 of 3 replicates).
With N51G R53D the result was 1.8 µM (3 of 3 replicates).
With Y31M S89E S93K the result was 8.6 µM (2 of 3 replicates).
With N51L N52Y Q96L the result was 8.0 µM (3 of 3 replicates).
With L27E K50T V97I the result was no signal (0 of 3 replicates).
With N52H D91Y S92M the result was no signal (0 of 3 replicates).

For reference, 2 entries of the list once more:

changes	apparent Kd	detected
E23V S26C S93M	260 µM	1 of 3
Y29C Y31P S55R	1.6 µM	2 of 3

Three control strains display no target. For library AAYL52, 28% of the pairings with them gave a signal, with a median of 8.2 µM and one signal in twenty below 800 nM, so weak values seen in few replicates may be background. For reference, the parent read 200 nM as the reference entry and 180 nM as a member of this library.

Reference: Engelhart et al. 2022, doi:10.1038/s41597-022-01779-4. File: FLAb, binding data.